Measured values: patent US20040204486A1, “Anandamide and structurally related lipids as vanilloid receptor modulators” (priority 2000, published 2004)
Several values for one entry are separate records, joined by “and”; a condition that tells them apart may be missing. Equal values may be shown once.

How the values were obtained:
rat hepatic artery = test: Recording of tension: relaxation of isolated rat hepatic artery contracted with phenylephrine
rat mesenteric artery = test: Recording of tension: relaxation of isolated rat mesenteric artery contracted with phenylephrine
[1] = system: guinea pig basilar artery; test: Recording of tension: relaxation of isolated guinea pig basilar artery contracted with prostaglandin F2α
Description: Recording of tension. Experiments were performed on hepatic (400 μm outer diameter) and mesenteric (200 μm outer diameter) arteries from female Wistar-Hannover rats (200-250 g) and on basilar arteries (300 μm outer diameter) from male guinea pigs. Briefly, the arteries were cut into ring segments and mounted in tissue baths containing aerated physiological salt solution (5% CO2 and 95% O2; 37° C.; pH 7.4) as previously described (refs. 38, 43). All experiments were performed in the presence of N^G-nitro-L-arginine (0.3 mM) and indomethacin (10 μM) to eliminate any contribution of nitric oxide and cyclooxygenase products, respectively (refs. 38, 23). Relaxant responses were studied in preparations contracted with phenylephrine (rat hepatic and mesenteric arteries) and prostaglandin F2α (guinea pig basilar artery) (refs. 38, 43). When stable contractions were obtained, agonists were added cumulatively to determine concentration-response relationships.
Some preparations were pre-treated with capsaicin for 1 hour followed by washout for 20 minutes. Each vessel segment was exposed to only one treatment. The experiments were carried out with the approval of the local ethics committee.
Calculations and statistics. Relaxations are expressed as percentage reversal of the prevailing contraction (100% indicates a complete reversal to basal tension). […] Data are presented as means±s.e.mean (vertical lines in figures), and n indicates the number of vascular segments (animals) examined. pA2 and slope values of the Shild plots were estimated according to the Jackknife method (ref. 46). Statistical analysis was performed by using Student's t-test (two-tailed), Mann-Whitney U-test, or analysis of variance (ANOVA) on log transformed values (cyclic AMP) followed by Bonferroni Dunn's post hoc test (Statview 4.12). Statistical significance was accepted when P<0.05.

cyclic AMP content = test: Measurement of cyclic AMP content in rat hepatic artery segments
Description: Measurement of CGRP and cyclic AMP. Segments of rat hepatic arteries were equilibrated for 1 hour in aerated physiological salt solution (5% CO2 and 95% O2; 37° C.; pH 7.4) containing N^G-nitro-L-arginine (0.3 mM) and indomethacin (10 μM).
Cyclic AMP: The amount of cyclic AMP after 5 min exposure to the test drugs was determined as previously described (ref. 44).

[2] = in presence of capsazepine (3 μM)

## CGRP: calcitonin gene-related peptide, vasodilator peptide
Rat hepatic artery; after pre-treatment with capsaicin (10 μM)
  pEC50 of relaxation: 9.51±0.02
Rat hepatic artery; control (agonist alone)
  pEC50 of relaxation: 9.56±0.04 and 9.46±0.01
Rat hepatic artery; in presence of 8-37 CGRP (2 μM)
  pEC50 of relaxation: 8.54±0.13
Rat hepatic artery; [2]
  pEC50 of relaxation: 9.39±0.04
Rat mesenteric artery; control (agonist alone)
  Emax of relaxation: 99±1%
Rat mesenteric artery; [2]
  Emax of relaxation: 99±1%
[1]; control (agonist alone)
  Emax of relaxation: 98±1%
  pEC50 of relaxation: 8.72±0.16
[1]; [2]
  Emax of relaxation: 99±1%
  pEC50 of relaxation: 8.70±0.15
Cyclic AMP content; anandamide 10 μM or CGRP 10 nM, 5 minutes
  tissue content of cyclic AMP: increased
Cyclic AMP content; segments pre-treated with capsaicin (10 μM)
  tissue content of cyclic AMP after capsaicin pre-treatment: resistant to capsaicin
